For 47 substances, binding activity (% of WT), Blocking efficiency of S47 and Binding activity (% of WT antibody) results are on record in patent US20230158141A1.

The target in the first experiment is TNFα (UniProt P01375). Kind of experiment: ELISA, conjugate vs WT antibody. A general note: In an ELISA, binding on a coated surface is turned into a signal by an enzyme label.
On to “anti-TNFα antibody heavy chain A33C-R4-1 (antibody; other documents disagree on this pair)”, for which the binding activity (% of WT) was determined as 95.1%.
Consider “anti-TNFα antibody heavy chain A61C-R4-1 (antibody; other documents disagree on this pair)”, for which the binding activity (% of WT) turned out to be 95.7%.
As to “anti-TNFα antibody heavy chain A105C-R4-1 (antibody; other documents disagree on this pair)”, the binding activity (% of WT) amounted to 86.5%.
Consider “anti-TNFα antibody heavy chain G56C-R4-1 (antibody; other documents disagree on this pair)”, for which the binding activity (% of WT) amounted to 88.7%.
With “anti-TNFα antibody heavy chain G66C-R4-1 (antibody; other documents disagree on this pair)”, the binding activity (% of WT) is 99.4%.
Turning to “anti-TNFα antibody heavy chain I51C-R4-3 (antibody; other documents disagree on this pair)”, the binding activity (% of WT) turned out to be 103%.
On to “anti-TNFα antibody heavy chain I58C-R4-3 (antibody; other documents disagree on this pair)”, for which the binding activity (% of WT) stood at 86.7%.
The same measure, in the same setting: to “anti-TNFα antibody heavy chain L102C-R4-3 (antibody; other documents disagree on this pair)” belongs 85.5%.
With “anti-TNFα antibody heavy chain L108C-R4-3 (antibody; other documents disagree on this pair)”, the binding activity (% of WT) worked out at 81.4%.
With “anti-TNFα antibody heavy chain S55C-R4-1 (antibody; other documents disagree on this pair)”, the binding activity (% of WT) worked out at 86.9%.
Regarding “anti-TNFα antibody heavy chain S63C-R4-1 (antibody; other documents disagree on this pair)”, the binding activity (% of WT) was found to be 96.8%.
On to “anti-TNFα antibody heavy chain S100C-R4-1 (antibody; other documents disagree on this pair)”, for which the binding activity (% of WT) is 92.2%.
For the substance “anti-TNFα antibody heavy chain S103C-R4-1 (antibody; other documents disagree on this pair)”, the binding activity (% of WT) was 84.5%.
Regarding “anti-TNFα antibody heavy chain S106C-R4-1 (antibody; other documents disagree on this pair)”, the binding activity (% of WT) is 98.3%.
In the case of “anti-TNFα antibody heavy chain S107C-R4-1 (antibody; other documents disagree on this pair)”, the binding activity (% of WT) was determined as 87.4%.
Take “anti-TNFα antibody heavy chain T52C-R4-1 (antibody; other documents disagree on this pair)”: the binding activity (% of WT) stood at 82.8%.
As for “anti-TNFα antibody heavy chain T104C-R4-1 (antibody; other documents disagree on this pair)”, the binding activity (% of WT) was found to be 97.3%.
On the same count and under the same terms, for “anti-TNFα antibody heavy chain Y32C-R4-4 (antibody; other documents disagree on this pair)” the value was 88.6%; for “anti-TNFα antibody heavy chain Y60C-R4-4 (antibody; other documents disagree on this pair)”, 85.2%; for “anti-TNFα antibody heavy chain Y101C-R4-4 (antibody; other documents disagree on this pair)”, 85.4%.
As for “anti-TNFα antibody heavy chain Y110C-R4-4 (antibody; other documents disagree on this pair)”, the binding activity (% of WT) came out at 82.5%.
Consider “anti-TNFα antibody light chain A25C-R4-1 (antibody; other documents disagree on this pair)”, for which the binding activity (% of WT) is 88.6%.
Take “anti-TNFα antibody light chain A34C-R4-1 (antibody; other documents disagree on this pair)”: the binding activity (% of WT) worked out at 85.7%.
As to “anti-TNFα antibody light chain A50C-R4-1 (antibody; other documents disagree on this pair)”, the binding activity (% of WT) is 85.5%.
With “anti-TNFα antibody light chain A51C-R4-1 (antibody; other documents disagree on this pair)”, the binding activity (% of WT) is 95.1%.
For “anti-TNFα antibody light chain A94C-R4-1 (antibody; other documents disagree on this pair)”, the binding activity (% of WT) was 97.5%.
“anti-TNFα antibody light chain G28C-R4-1 (antibody; other documents disagree on this pair)”: the binding activity (% of WT) was 92.3%.
As to “anti-TNFα antibody light chain G57C-R4-1 (antibody; other documents disagree on this pair)”, the binding activity (% of WT) came to 95.5%.
On the same count and under the same terms, for “anti-TNFα antibody light chain I29C-R4-3 (antibody; other documents disagree on this pair)” the value was 87.8%.
The same measure, in the same setting: to “anti-TNFα antibody light chain L33C-R4-3 (antibody; other documents disagree on this pair)” belongs 89.4%.
On to “anti-TNFα antibody light chain L54C-R4-3 (antibody; other documents disagree on this pair)”, for which the binding activity (% of WT) stood at 82.2%.
Still for that read-out and setting: for “anti-TNFα antibody light chain S26C-R4-1 (antibody; other documents disagree on this pair)” the value was 97.1%; for “anti-TNFα antibody light chain S52C-R4-1 (antibody; other documents disagree on this pair)”, 86.8%.
On to “anti-TNFα antibody light chain S56C-R4-1 (antibody; other documents disagree on this pair)”, for which the binding activity (% of WT) was determined as 95.4%.
Take “anti-TNFα antibody light chain T53C-R4-1 (antibody; other documents disagree on this pair)”: the binding activity (% of WT) turned out to be 89.4%.
Consider “anti-TNFα antibody light chain T97C-R4-1 (antibody; other documents disagree on this pair)”, for which the binding activity (% of WT) turned out to be 82.5%.
Take “anti-TNFα antibody light chain Y32C-R4-4 (antibody; other documents disagree on this pair)”: the binding activity (% of WT) amounted to 89.1%.
Regarding “anti-TNFα antibody light chain Y91C-R4-1 (antibody; other documents disagree on this pair)”, the binding activity (% of WT) was 34.5%.
Regarding “anti-TNFα antibody light chain Y91C-R4-4 (antibody; other documents disagree on this pair)”, the binding activity (% of WT) was found to be 90.1%.

A further experiment concerns the target TNFa protein (Sino Biological) (UniProt P01375). Kind of experiment: ELISA, EC50 fold change; S47 on the Cys.
Substance “Ada-se001 (Adalimumab heavy chain Tyr32Cys) (antibody)” returned a Blocking efficiency of S47 of 11 fold.
The substance “Ada-se002 (Adalimumab heavy chain Asp59Cys) (antibody)” registered a Blocking efficiency of S47 of 7 fold.

The target is the same in the next experiment. The experiment is described as follows: ELISA; R4-7 on the Cys.
On to Adalimumab Gln3Cys (VH) (antibody), for which the Binding activity (% of WT antibody) turned out to be 78.4.
Turning to Adalimumab Glu46Cys (VH) (antibody), the Binding activity (% of WT antibody) worked out at 78.4.
Adalimumab Ser7Cys (VH) (antibody): the Binding activity (% of WT antibody) came to 87.4.
As for Adalimumab Ser26Cys (VH) (antibody), the Binding activity (% of WT antibody) was found to be 68.4.
With “Adalimumab Thr5Cys (VL) (antibody; other documents disagree on this pair)”, the Binding activity (% of WT antibody) was 97.4.
Adalimumab Thr68Cys (VH) (antibody): the Binding activity (% of WT antibody) was found to be 97.8.
